# Laboratory results from PubChem BioAssay AID1865 (National Center for Advancing Translational Sciences (NCATS), 2009).
# Several values for one entry are separate records, joined by “and”; a condition that tells them apart may be missing. Identical values can stand only once. Only a part is listed here, and it is no random draw. Activity calls are given as the source filed them. The call rests on the fitted dose curve; in most records, active means well fitted activation curve with a large enough effect; inconclusive means small, poorly fitted or top-dose-only effect; inactive means flat fitted curve, though single readings scatter.
# Assay: Quantitative High-Throughput Screen for Regulators of Epigenetic Control; further: % of control where 0% means no effect; nearly all actives have a fitted effect of over 60% in size
# Details: murine LDR cells, GFP reporter derepression, 30 h
# Text: NIH Molecular Libraries Screening Centers Network [MLPCN] NIH Chemical Genomics Center [NCGC] MLSCN Grant: 1 X01 MH079860-01 Assay Provider: Elisabeth D. Martinez, University of Texas SW Medical Center NCGC Assay Overview: The Locus Derepression (LDR) assay detects the derepression or induction of a GFP reporter that is stably integrated in a genomic region of murine cells that is presumably silenced. Transcription of the GFP reporter is controlled by a CMV promoter, which normally is constitutively active. However, this cell line, termed LDR, was selected for lack of constitutive production of GFP. GFP production can be induced by incubating the cells with histone deacetylase or DNA methyltransferase inhibitors (Martinez et al., 2006). Compounds that derepress or induce this reporter locus are identified by enumerating GFP positive cells using a laser-scanning microplate cytometer (Auld et al., 2006). This assay was screened against the MLSMR earlier (AID 597; (Johnson et al., 2008) and has been rescreened here against the expanded collection.
# NCGC Assay Protocol Summary: Three hundred LDR cells in 5 uL per well were dispensed into black, clear-bottom 1536-well plates. Twenty-three nL compound was transferred to the assay plate and cells were incubated 30 hours at 37 C. Medium was removed, cells were washed two times with PBS, and GFP-positive cells were enumerated as fluorescent objects between the sizes of 20 to 120 um width and depth using an Acumen Explorer. References Auld, DS, Johnson, RL, Zhang, YQ, Veith, H, Jadhav, A, Yasgar, A, Simeonov, A, Zheng, W, Martinez, ED, Westwick, JK, Austin, CP, Inglese, J (2006). Fluorescent protein-based cellular assays analyzed by laser-scanning microplate cytometry in 1536-well plate format. Methods Enzymol 414: 566-89. Johnson, RL, Huang, W, Jadhav, A, Austin, CP, Inglese, J, Martinez, ED (2008). A quantitative high-throughput screen identifies potential epigenetic modulators of gene expression. Anal Biochem 375: 237-48. Martinez, ED, Dull, AB, Beutler, JA, Hager, GL (2006). High-content fluorescence-based screening for epigenetic modulators. Methods Enzymol 414: 21-36.
# [1] = at 53.9 µM (top of the series) unless noted
compound,measurement,setting,value
Nc1cccc2ccc([As](=O)(O)O)cc12,GFP activation,[1],inactive: -0.222%
CCN(N=Nc1nonc1N)c1nonc1N,GFP activation,[1],inactive: 0%
O=P(Nc1nc2ccc(Cl)cc2s1)(c1ccccc1)c1ccccc1,GFP activation,[1],inactive: 0%
CC(=O)Nc1ccc([As](=O)(O)O)cc1,GFP activation,[1],inactive: -1.08%
O=C(O)c1ccccc1[As](=O)(O)O,GFP activation,[1],inactive: -3.23%
Cc1ccc(NP(=O)(Oc2ccccc2F)Oc2ccccc2F)nc1,GFP activation,[1],inactive: 0%
CN(C(=O)Cc1ccc(Cl)c(Cl)c1)[C@H]1CCCC[C@@H]1N1CCCC1,GFP activation,[1],inactive: 0.833% [middle of 8 runs]
Cc1cc(SC(NC(=O)c2ccc(F)cc2)C(Cl)(Cl)Cl)ncn1 (stereo not given),GFP activation,[1],inactive: -0.99%
CCOP(=O)(Nc1ccccc1)OCC,GFP activation,[1],inactive: -8.96% and inactive: -0.259%
O=C(NC(Sc1ccncn1)C(Cl)(Cl)Cl)c1ccccc1 (stereo not given),GFP activation,[1],inactive: -3.17%
Cc1c2non([O-])c-2c(C)[n+](=O)[n+]1[O-],GFP activation,[1],inactive: 12.8%
Oc1ccccc1CNc1ccccn1,GFP activation,[1],inactive: -4.15%
Nc1cc(N)c2nonc2c1[N+](=O)[O-],GFP activation,[1],inactive: 0.311%
CC(C)CC(=O)NC(Sc1ccc(Cl)cc1)C(Cl)(Cl)Cl (stereo not given),GFP activation,[1],inactive: -0.508%
Cc1ccc(N/C(=N/P(=O)(N2CCOCC2)N2CCOCC2)N2CCOCC2)cc1,GFP activation,[1],inactive: -0.233%
NC(=O)c1cc([N+](=O)[O-])cc([N+](=O)[O-])c1N,GFP activation,[1],inactive: 3.97%
CN1CCCC(OC(=O)C(c2ccccc2)c2ccccc2)C1 (stereo not given),GFP activation,[1],inactive: 0.192%
Clc1ccc(Cl)c(NC2=NCC(CBr)S2)c1 (stereo not given),GFP activation,[1],inactive: 1.06%
Cc1ccc(OP(=O)(Nc2nccs2)Oc2ccc(C)cc2)cc1,GFP activation,[1],inactive: 1.87%
COc1ccccc1OP(=O)(Nc1ccc(C)cn1)Oc1ccccc1OC,GFP activation,[1],inactive: 2.36%
CCN(/C(=N/P(=O)(N1CCOCC1)N1CCOCC1)N1CCOCC1)c1ccc(OC)cc1,GFP activation,[1],inactive: 2.56%
C[N+]1=C2C=CC=CC=C2SC12C([N+](=O)[O-])=CC([N+](=O)[O-])=C[C-]2[N+](=O)[O-] (stereo not given),GFP activation,[1],inactive: -1.08%
Nc1ccc([As](=O)(O)c2ccc(N)cc2)cc1,GFP activation,[1],inactive: 3.25%
CC1CCN(C(=O)Oc2c(Cl)cc(Cl)c3cccnc23)CC1,GFP activation,[1],inactive: 2.83%
CC(=O)C1=CCCC2CCC1N2 (stereo not given),GFP activation,[1],inactive: -1.89% and inactive: 0%
CN(C)C(=O)OCCc1n(C)cc[n+]1C,GFP activation,[1],inactive: -1.49%
CC(C)=N/N=C(\N)N[N+](=O)[O-],GFP activation,[1],inactive: -6.35%
COc1ccc(C2=NCC(CBr)S2)cc1 (stereo not given),GFP activation,[1],inactive: 0.508%
CCc1nc2c(n1)c1c(non1O)c1c2no[n+]1[O-],GFP activation,[1],inactive: -2.12%
O=[N+]([O-])c1cc([N+](=O)[O-])c(CCNc2ccccc2)c([N+](=O)[O-])c1,GFP activation,[1],inactive: 0.244%
Cc1ccc(NP(=O)(Oc2ccccc2)Oc2ccccc2)nc1,GFP activation,[1],inactive: 2.25%
O=[N+]([O-])c1cccc2n[nH]nc12,GFP activation,[1],inactive: -0.567%
CC(=O)N1C2C3N(C(C)=O)C1C1N(C(C)=O)C(C(N1C(C)=O)N3C(C)=O)N2C(C)=O,GFP activation,[1],inactive: 2.11%
O=[N+]([O-])c1ncn(CCn2ncnc2[N+](=O)[O-])n1,GFP activation,[1],inactive: 5.62%
CC(C)(C)C(=O)NC(Sc1ccncn1)C(Cl)(Cl)Cl (stereo not given),GFP activation,[1],inactive: -3.06%
O=C(O)CNc1ccc([As](=O)(O)O)cc1,GFP activation,[1],inactive: -0.281%
O=[N+]([O-])c1cccc(NC2=NCC(CBr)S2)c1 (stereo not given),GFP activation,[1],inactive: 0%
O=C(Nc1cc([As](=O)(O)O)ccc1O)c1ccccc1,GFP activation,[1],inactive: 0.433%
O=[As](O)(c1ccccc1)c1ccc(O)cc1,GFP activation,[1],inactive: 1.08%
O=[N+]([O-])c1ncn(CCn2cnc([N+](=O)[O-])n2)n1,GFP activation,[1],inactive: 0%
CC(=O)NC(SC(=S)N(C)C)C(Cl)(Cl)Cl (stereo not given),GFP activation,[1],inactive: -0.216%
O=C(OC1CN2CCC1CC2)c1cccc(Cl)c1 (stereo not given),GFP activation,[1],inactive: -1.83%
C(Cc1nn[nH]n1)Cc1nn[nH]n1,GFP activation,[1],inactive: -5.27%
Nc1ccc([As](=O)(O)c2ccc([N+](=O)[O-])cc2)cc1,GFP activation,[1],inactive: 5.44%
O=P(Nc1ccccn1)(c1ccc(Br)cc1)c1ccc(Br)cc1,GFP activation,[1],inactive: -0.229%
CN(C(=O)Cc1ccccc1)[C@H]1CC[C@@]2(CCCO2)C[C@@H]1N1CCCC1,GFP activation,[1],inactive: 0%
C[C@H]1OP(=O)(Oc2ccccc2)[C@H](O)[C@H](O)[C@H]1N=[N+]=[N-] (stereo not given in full),GFP activation,[1],inactive: 0.99%
O=P(Nc1nc2ccccc2s1)(c1ccccc1)c1ccccc1,GFP activation,[1],inactive: -0.281%
CC(C)C(=O)NC(Sc1ccccc1)C(Cl)(Cl)Cl (stereo not given),GFP activation,[1],inactive: -1.04%
O=P(Nc1nccs1)(c1ccccc1)c1ccccc1,GFP activation,[1],inactive: -1.14%
c1nnnn1CCn1cnnn1,GFP activation,[1],inactive: 0%
C[C@H]1OP(=O)(Oc2ccccc2)C[C@@H]2O[C@@H]21 (stereo not given in full),GFP activation,[1],inactive: 6.12%
C[C@@H]1C=CCP(=O)(Oc2ccccc2)O1 (stereo not given in full),GFP activation,[1],inactive: 0%
CC(=O)Nc1ccc(Oc2c([N+](=O)[O-])cc([N+](=O)[O-])cc2[N+](=O)[O-])cc1,GFP activation,[1],inactive: 0.234%
CC(=O)Nc1ccc([As](=O)(O)O)c(O)c1,GFP activation,[1],inactive: 0%
CCOc1ccc(C2=NCC(CBr)S2)cc1 (stereo not given),GFP activation,[1],inactive: 0%
O=P1(Nc2nc3ccc(Cl)cc3s2)COc2ccccc2O1 (stereo not given),GFP activation,[1],inactive: -0.952%
CC(C)(C)C(=O)NC(Sc1ccccc1)C(Cl)(Cl)Cl (stereo not given),GFP activation,[1],inactive: -2.82%
CCC(=O)N1C2C3N(C(=O)CC)C1C1N(C(=O)CC)C(C(N1C(=O)CC)N3C(=O)CC)N2C(=O)CC,GFP activation,[1],inactive: 0.758%
CN(C(=O)Cc1ccc(Cl)c(Cl)c1)[C@@H]1CCCC[C@@H]1N1CCCC1,GFP activation,[1],inactive: -0.144%
Cc1ccc(OP(=O)(Nc2ccccn2)Oc2ccc(C)cc2)cc1,GFP activation,[1],inactive: 2.99%
CC(=O)NC(SC(=S)N(CC(C)C)CC(C)C)C(Cl)(Cl)Cl (stereo not given),GFP activation,[1],inactive: 0.102%
COC(=O)c1cc2c(s1)N=C(c1ccccc1)N(C)P2(=O)N1CCOCC1 (stereo not given),GFP activation,[1],inactive: -1.06%
O=c1c2cc([N+](=O)[O-])ccc2[nH]c2c([N+](=O)[O-])cc([N+](=O)[O-])cc12,GFP activation,[1],inactive: -7.45%
CN(C)C(=O)Oc1noc2ccccc12,GFP activation,[1],inactive: -1.06%
Cc1ccccc1OP(=O)(Nc1ccccn1)Oc1ccccc1C,GFP activation,[1],inactive: -2.41%
CCOC(=O)NC(Sc1ccccc1)C(Cl)(Cl)Cl (stereo not given),GFP activation,[1],inactive: -2.33%
Cc1ccc(NP(=O)(Oc2cccc(C)c2)Oc2cccc(C)c2)nc1,GFP activation,[1],inactive: 2.02%
c1ccc(-c2nn[nH]n2)c(-c2nn[nH]n2)c1,GFP activation,[1],inactive: -1.59%
CCNC(=S)/N=C(\N)N[N+](=O)[O-],GFP activation,[1],inactive: -1.28%
O=C(NC1CCS(=O)(=O)C1)NP(=S)(Oc1ccccc1)Oc1ccccc1 (stereo not given),GFP activation,[1],inactive: -1.63%
O=[N+]([O-])CC(O)c1ccc([N+](=O)[O-])cc1 (stereo not given),GFP activation,[1],inactive: 3.41%
NC(=O)Nc1ccc([As](=O)(O)O)cc1,GFP activation,at 16.9 µM (top of the series),inactive: 1.05%
same,GFP activation,at 53.9 µM (top of the series),inactive: 5.27%
CN(C(=O)Cc1ccccc1)[C@@H]1CC[C@]2(CCCO2)C[C@H]1N1CCCC1,GFP activation,[1],inactive: 1.11% and inactive: -1.22%
CCOP1(=S)c2c(C)nn(CCC#N)c2N=C(c2ccc(F)cc2)N1C (stereo not given),GFP activation,[1],inactive: -5.03%
O=[N+]([O-])c1ccc2c(c1)nnn2O,GFP activation,[1],inactive: 0.0207%
O=P(Nc1nccs1)(Oc1ccccc1)Oc1ccccc1,GFP activation,[1],inactive: -1.18%
O=P(Nc1nccs1)(c1ccccc1)c1nc2ccccc2s1 (stereo not given),GFP activation,[1],inactive: 3.17%
CCOP1(=S)c2c(C)nn(CCC#N)c2N=C(c2ccccc2F)N1C (stereo not given),GFP activation,[1],inactive: -1.08%
Nc1ccccc1[As](=O)(O)c1ccccc1,GFP activation,[1],inactive: 0%
O=C(O)COc1ccc([As](=O)(O)O)cc1[N+](=O)[O-],GFP activation,[1],inactive: 2.76%
Nc1cccc2c([As](=O)(O)O)cccc12,GFP activation,[1],inactive: 0%
Cc1ccc(NCCc2c([N+](=O)[O-])cc([N+](=O)[O-])cc2[N+](=O)[O-])cc1,GFP activation,[1],inactive: 1.32%
CCCOP(=S)(Nc1nc(N)cc(=O)[nH]1)OCCC,GFP activation,[1],inactive: -1.42%
CCOP(=O)(Nc1cccc2ccccc12)OCC,GFP activation,[1],inactive: 0.156%
COc1cc(C2NCCC3(OCCO3)C2(C)C)cc(OC)c1OC (stereo not given),GFP activation,[1],inactive: -0.917%
CN(C(=O)Cc1ccc(Cl)c(Cl)c1)[C@@H]1CC[C@]2(CCCO2)C[C@H]1N1CCCC1,GFP activation,[1],inactive: 0% and inactive: 1.22%
O=C(OC1CN2CCC1CC2)c1ccc(Cl)cc1 (stereo not given),GFP activation,[1],inactive: 2.45%
O=[As](O)(O)c1cccnc1,GFP activation,[1],inactive: -0.99%
COc1cc(C(=O)NCC2(N3CCOCC3)CCCCC2)cc(Cl)c1OC(C)C,GFP activation,[1],inactive: -6.78%
Cc1cccc(OCC(=O)OC2CN3CCC2CC3)c1 (stereo not given),GFP activation,[1],inactive: 0.153%
O=[As](O)(c1cccc(O)c1)c1cccc(O)c1,GFP activation,[1],inactive: 5.34%
CC(C)/C=N\N=C(\N)N[N+](=O)[O-],GFP activation,[1],inactive: -1.37%
CN(C(=O)Cc1ccc(Cl)c(Cl)c1)[C@@H]1CCCC[C@H]1N1CCCC1,GFP activation,[1],inactive: -1.82% and inactive: 0% and inactive: -0.167%
O=[As](O)(c1ccccc1Br)c1ccccc1Br,GFP activation,[1],inactive: 1.05%
O=P1(Nc2ccccn2)COc2ccccc2OC1,GFP activation,[1],inactive: -0.952%
CCOP(=O)(Nc1ccc(C)cn1)OCC,GFP activation,[1],inactive: -1.03%
CN(CCCl)Cc1cc(Cl)c(NC2=NCCN2)c(Cl)c1,GFP activation,[1],inactive: 5.26% and inactive: -0.144%
CC(C)(C)C(=O)NC(Sc1ncccn1)C(Cl)(Cl)Cl (stereo not given),GFP activation,[1],inactive: -1.73%
